In patent US5968938A, “Piperazine oxytocin receptor antagonists” (Merck & Co., Inc., priority 1998, dated 1999) one finds Kd data, which are given here for two substances.

The chains behind the UniProt entries cited, without tags or fusion partners.
UniProt P30560, whole entry: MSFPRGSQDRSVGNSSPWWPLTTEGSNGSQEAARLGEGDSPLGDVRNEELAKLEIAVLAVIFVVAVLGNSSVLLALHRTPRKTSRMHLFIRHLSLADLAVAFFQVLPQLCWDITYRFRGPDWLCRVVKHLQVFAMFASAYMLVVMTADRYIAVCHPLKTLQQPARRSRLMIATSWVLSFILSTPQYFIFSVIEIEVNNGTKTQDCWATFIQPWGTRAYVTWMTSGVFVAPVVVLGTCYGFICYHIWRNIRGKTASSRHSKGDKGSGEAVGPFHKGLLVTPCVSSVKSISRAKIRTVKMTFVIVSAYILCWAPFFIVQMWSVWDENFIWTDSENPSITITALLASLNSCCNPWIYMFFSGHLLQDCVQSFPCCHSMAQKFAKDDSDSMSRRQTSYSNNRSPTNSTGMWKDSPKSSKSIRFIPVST

One may read the Kd as the equilibrium constant for the complex coming apart. Lower therefore signals tighter binding.

One assay has as its target T1, AVP-V1 site (rat liver) (Rattus norvegicus, UniProt P30560).
T1 construct: from tissue; host or cells: liver of male rats
The assay is described as follows: [3H]arginine vasopressin binding, rat liver membranes. The note with it: equilibrium saturation binding, n=3. The text has this:
(§1) Ther., 256(1): 304-308 (1991)].

For another assay, the target named is T2, human oxytocin receptor (Homo sapiens, UniProt P30559).
T2 construct: tissue Oregon Health Sciences Center, Portland, Or; host or cells: uterine tissue (full thickness) from nonlabor pregnant women, 38 to 39 weeks gestation
T2 sequence (P30559 1-389): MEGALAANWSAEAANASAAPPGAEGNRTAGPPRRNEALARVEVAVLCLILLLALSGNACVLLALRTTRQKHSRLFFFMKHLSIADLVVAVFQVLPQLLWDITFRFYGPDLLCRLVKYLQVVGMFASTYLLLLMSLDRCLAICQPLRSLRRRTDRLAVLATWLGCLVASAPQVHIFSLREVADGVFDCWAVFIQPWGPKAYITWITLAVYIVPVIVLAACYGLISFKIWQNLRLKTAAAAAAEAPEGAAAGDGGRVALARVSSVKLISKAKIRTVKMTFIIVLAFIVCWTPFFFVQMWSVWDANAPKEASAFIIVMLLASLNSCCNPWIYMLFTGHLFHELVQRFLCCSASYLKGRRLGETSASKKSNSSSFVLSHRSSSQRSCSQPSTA
As to the kind of experiment: [3H]oxytocin binding, human uterine tissue (myometrium) membranes. The note with it: equilibrium saturation binding, n=3.
Excerpt: as §1

With [^3 H]arginine vasopressin [[^3 H]AVP], in the assay with AVP-V1 site (rat liver), the dissociation constant Kd came to 0.21 nM.

In the assay with human oxytocin receptor, [^3 H]oxytocin [[^3 H]OT] registered a Kd of 1.1 nM.
